Among the data in ChEMBL document CHEMBL1157712, “Hit to lead account of the discovery of bisbenzamide and related ureidobenzamide inhibitors of Rho kinase” (J Med Chem, 2010) are IC50 and efflux ratio values, retold here.

Chains of the proteins cited; added tags and fusions are not shown. Lines headed by an entry give the natural chain unless they say otherwise; changes in a name come on top.
UniProt O75116: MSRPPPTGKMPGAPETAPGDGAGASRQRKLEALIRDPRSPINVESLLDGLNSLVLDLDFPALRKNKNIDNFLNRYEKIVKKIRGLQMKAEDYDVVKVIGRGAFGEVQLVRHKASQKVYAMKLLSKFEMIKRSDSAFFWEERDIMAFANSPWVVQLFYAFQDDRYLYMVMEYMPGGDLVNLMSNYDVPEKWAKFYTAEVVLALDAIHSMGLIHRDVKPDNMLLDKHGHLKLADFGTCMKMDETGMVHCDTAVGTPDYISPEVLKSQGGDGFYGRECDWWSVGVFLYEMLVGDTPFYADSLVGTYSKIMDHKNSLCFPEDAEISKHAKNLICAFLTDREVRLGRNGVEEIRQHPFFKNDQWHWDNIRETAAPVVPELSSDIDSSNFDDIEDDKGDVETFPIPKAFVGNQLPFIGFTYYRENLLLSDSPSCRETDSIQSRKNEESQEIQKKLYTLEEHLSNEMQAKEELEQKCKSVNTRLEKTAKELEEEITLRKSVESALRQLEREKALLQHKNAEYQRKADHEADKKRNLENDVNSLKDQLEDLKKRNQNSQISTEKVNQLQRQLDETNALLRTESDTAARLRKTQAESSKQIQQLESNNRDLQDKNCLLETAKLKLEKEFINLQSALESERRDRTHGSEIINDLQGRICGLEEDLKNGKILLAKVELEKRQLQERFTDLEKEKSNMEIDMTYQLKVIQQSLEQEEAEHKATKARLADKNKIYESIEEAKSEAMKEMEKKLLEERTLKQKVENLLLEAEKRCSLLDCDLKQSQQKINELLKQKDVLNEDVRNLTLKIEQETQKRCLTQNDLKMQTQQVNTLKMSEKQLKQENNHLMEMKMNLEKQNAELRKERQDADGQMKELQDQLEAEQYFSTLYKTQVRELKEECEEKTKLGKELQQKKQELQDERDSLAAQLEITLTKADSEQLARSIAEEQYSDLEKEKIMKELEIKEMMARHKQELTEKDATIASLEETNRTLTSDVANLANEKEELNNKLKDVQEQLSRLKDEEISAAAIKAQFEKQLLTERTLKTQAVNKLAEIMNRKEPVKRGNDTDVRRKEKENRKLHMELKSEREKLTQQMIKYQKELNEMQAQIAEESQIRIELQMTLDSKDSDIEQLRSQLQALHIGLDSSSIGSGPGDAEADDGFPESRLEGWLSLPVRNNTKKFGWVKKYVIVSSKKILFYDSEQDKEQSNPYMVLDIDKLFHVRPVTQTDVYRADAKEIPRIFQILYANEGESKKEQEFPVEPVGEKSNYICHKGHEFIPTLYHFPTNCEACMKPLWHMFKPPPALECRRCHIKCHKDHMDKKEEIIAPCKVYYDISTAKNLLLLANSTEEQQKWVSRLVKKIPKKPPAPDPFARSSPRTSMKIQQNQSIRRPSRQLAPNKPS

One series relates to ROCK1 (Homo sapiens). The series is described as follows: Inhibition of ROCK1.
Another series is described as follows: in vitro. Particulars: human, Caco-2.
Series [1] concerns the target Rho-associated protein kinase 2 (Homo sapiens, UniProt O75116).

For orientation: IC50 means the concentration that gives 50% inhibition. Lower therefore signals greater potency in that assay. Turning to `CN(C)Cc1ccc(NC(=O)c2cccc(CNC(=O)Nc3ccc(C#N)cc3)c2)cc1`, the IC50 with ROCK1 (Homo sapiens) was determined as 0.091 µM.

On to `COc1ccc(C(=O)NCc2cccc(C(=O)Nc3ccc(CN(C)C)cc3)c2)cc1OC`, for which half-maximal inhibition in the series with ROCK1 (Homo sapiens) (IC50) was put at 0.205 µM.

The compound `N#Cc1ccc(NC(=O)NCc2cccc(C(=O)Nc3ccc4c(c3)CNCC4)c2)cc1` displayed an IC50 in the series with ROCK1 (Homo sapiens) of 0.04 µM.

The term efflux ratio denotes the permeability from basolateral to apical divided by that in the opposite direction, in the common usage. Take `COc1ccc(C(=O)NCc2cccc(C(=O)Nc3ccc4c(c3)CN(C)CC4)c2)cc1OC`: in “in vitro”, the efflux ratio worked out at 90.3. The compound also registered an IC50 in the series with ROCK1 (Homo sapiens) of 0.086 µM.

With `COc1ccc(C(=O)NCc2cccc(C(=O)NCCC3CCNCC3)c2)cc1OC`, the IC50 with ROCK1 (Homo sapiens) was 0.18 µM; in series [1], 0.176 µM.

Turning to `COc1ccc(C(=O)NCc2cccc(C(=O)NCCC3CCCNC3)c2)cc1OC` (centres undefined), half-maximal inhibition in the series with ROCK1 (Homo sapiens) (IC50) was put at 0.097 µM.

In turn, `N#Cc1cccc(NC(=O)NCc2cccc(C(=O)NCCC3CCCNC3)c2)c1` (centres undefined) yielded an IC50 in the series on ROCK1 (Homo sapiens) of 0.074 µM.
